Measurements as given in patent US20250144229A1, “CONJUGATE OF ANTIBODY-ERIBULIN OR DERIVATIVE THEREOF, INTERMEDIATE THEREOF, PREPARATION METHOD THEREFOR, PHARMACEUTICAL COMPOSITION THEREOF AND USE THEREOF” (MEDLINK THERAPEUTICS (SUZHOU) CO., LTD., priority 2022, published 2025).

T1: human B7H3-4IgG-His (human, UniProt Q5ZPR3 27-461)
T1 construct: range 27-461; Recombinant antigen expressed in HEK293F cells; also called human 4Ig B7H3
T1 sequence: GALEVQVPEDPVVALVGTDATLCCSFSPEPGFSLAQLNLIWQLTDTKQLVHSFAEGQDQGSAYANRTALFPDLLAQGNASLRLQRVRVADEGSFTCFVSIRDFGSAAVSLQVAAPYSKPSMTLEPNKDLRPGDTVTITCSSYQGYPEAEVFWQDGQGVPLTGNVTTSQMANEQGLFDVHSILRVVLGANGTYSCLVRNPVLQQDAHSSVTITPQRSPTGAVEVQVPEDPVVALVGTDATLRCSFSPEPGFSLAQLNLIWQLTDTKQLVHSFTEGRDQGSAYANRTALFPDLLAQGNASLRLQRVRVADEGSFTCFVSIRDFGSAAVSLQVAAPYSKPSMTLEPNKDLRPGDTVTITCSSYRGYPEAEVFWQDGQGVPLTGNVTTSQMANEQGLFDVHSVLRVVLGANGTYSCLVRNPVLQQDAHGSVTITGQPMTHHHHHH

T2: monkey B7H3-4IgG-His (monkey)
T2 chain: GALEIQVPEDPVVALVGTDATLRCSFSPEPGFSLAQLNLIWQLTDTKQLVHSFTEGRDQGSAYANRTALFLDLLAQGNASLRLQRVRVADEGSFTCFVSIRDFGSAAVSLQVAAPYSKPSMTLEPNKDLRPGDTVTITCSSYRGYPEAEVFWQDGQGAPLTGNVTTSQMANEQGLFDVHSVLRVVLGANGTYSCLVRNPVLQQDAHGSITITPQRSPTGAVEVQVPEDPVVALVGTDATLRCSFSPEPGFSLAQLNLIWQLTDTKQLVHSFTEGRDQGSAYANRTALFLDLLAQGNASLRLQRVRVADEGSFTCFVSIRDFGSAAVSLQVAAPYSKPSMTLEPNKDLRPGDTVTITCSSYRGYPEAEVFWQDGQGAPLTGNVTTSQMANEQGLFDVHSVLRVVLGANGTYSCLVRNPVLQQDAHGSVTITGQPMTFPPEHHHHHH

B1: anti-B7H3 antibody 1D1-01 (antibody, human IgG1, kappa, V domains shown)
VH: EGQLVESGGGLVQPGGSLRLSCAASGFTISSYWMNWVRQAPGKGLEWVANIKQDGSEKYYVDSVQGRFTISRDNAKNSLYLQMNSLRAEDTAVYYCARRMYSSGWYWGAFDMWGQGTMVTVSS
VL: EIVLTQSPGTLSLSPGERATLSCRASQSVSSIYLAWNQQKPGQAPRLLIYGTFKRATGIPDRFSGSGSGTDFTLTISSLEPEDFAVYYCQQYDTSSITFGQGTRLEIKR
B2: anti-B7H3 antibody 2E3-02 (antibody, human IgG1, kappa, V domains shown)
VH: EVQLLESGGGLVQPGGSLRLSCAASGFTFSSYAMNWVRQAPGKGLEWVSGISGSGGSTYYADSVQGRFTISRDNSKNTLYLQMNSLRAEDTAVYYCAKARSGYDYFFDYWGQGTLVTVSS
VL: EIVLTQSPGTLSLSPGERATLSCRASQRISSSFLAWYQQKPGQAPSLLIYGASSRATGIPDRFSGSGSGTDFTLTISSLEPEDFAVFYCQQYSNSPLTFGGGTKVEIKR

Assays:
[1] = target: B7H3 protein on human tumor cells (MCF-7, A549, PC-3, HT29) (human) (UniProt Q5ZPR3); test: flow cytometry on MCF-7 tumor cells; reference B7H3-C1
[2] = target: B7H3 protein on human tumor cells (MCF-7, A549, PC-3, HT29) (human) (UniProt Q5ZPR3); test: flow cytometry on MCF-7 tumor cells
[3] = target: B7H3 protein on human tumor cells (MCF-7, A549, PC-3, HT29) (human) (UniProt Q5ZPR3); test: flow cytometry on A549 tumor cells
[4] = target: T1, human B7H3-4IgG-His; test: ELISA, antigen coated on the plate, anti-human Fc-HRP detection
Method: (§1) The affinity of B7H3 full human antibody to human B7H3-4IgG-His and monkey B7H3-4IgG-His proteins was tested by ELISA. Specific experimental procedures: Human B7H3-4IgG-His or monkey B7H3-4IgG-His proteins were diluted to a final concentration of 1 g/mL using carbonate buffer with a pH value of 9.6, then added to a 96-well ELISA plate at 100 μL/well, and coated overnight at 4° C. The coating solution was discarded, and the plate was washed once with PBST. 100 μL of PBS (containing 2% BSA) was added to each well, and blocked at 37° C. for 1 hour. 100 μL of B7H3 full human antibody diluted with PBS (containing 2% BSA) (starting at 10 g, 3-fold serial dilution in duplicate wells) was then added to each well, and incubated at 37° C. for 2 hours. The plate was washed three times with PBST, added with horseradish peroxidase-labeled anti-human Fc antibody (diluted at 1:10000 with PBS) at 100 μL/well, and incubated at 37° C. for 1 hour. The plate was washed five times with PBST. TMB chromogenic solution was added at 100 μL/well to develop color at 37° C. for 7 minutes. Stop solution was added at 50 μL/well to terminate the reaction. The absorbance was measured at 450 nm. EC₅₀ values were calculated from original data.

[5] = target: T2, monkey B7H3-4IgG-His; test: as above
Method: as §1

[6] = target: B7H3 protein on human tumor cells (MCF-7, A549, PC-3, HT29) (human) (UniProt Q5ZPR3); test: flow cytometry on A549 tumor cells; reference B7H3-C1
[7] = target: B7H3 protein on human tumor cells (MCF-7, A549, PC-3, HT29) (human) (UniProt Q5ZPR3); test: flow cytometry on PC-3 tumor cells; reference B7H3-C2
[8] = target: B7H3 protein on human tumor cells (MCF-7, A549, PC-3, HT29) (human) (UniProt Q5ZPR3); test: flow cytometry on MCF-7 tumor cells; reference B7H3-C2
[9] = target: B7H3 protein on human tumor cells (MCF-7, A549, PC-3, HT29) (human) (UniProt Q5ZPR3); test: flow cytometry on PC-3 tumor cells; reference B7H3-C1
[10] = target: B7H3 protein on human tumor cells (MCF-7, A549, PC-3, HT29) (human) (UniProt Q5ZPR3); test: flow cytometry on PC-3 tumor cells

Binder | maximum fluorescence signal value, percent higher than that of B7H3-C1 [1] [%] | EC50 [2] [pM] | Maximum MFI [2] | EC50 [3] [pM] | Maximum MFI [3] | EC50 [4] [pM] | EC50 [5] [pM] | maximum fluorescence signal value, percent higher than that of B7H3-C1 [6] [%] | maximum fluorescence signal value, times higher than that of B7H3-C2 [7] [times] | maximum fluorescence signal value, times higher than that of B7H3-C2 [8] [times] | maximum fluorescence signal value, times higher than that of B7H3-C1 [9] [times] | EC50 [10] [pM] | Maximum MFI [10]
B1 | 12 | 524 | 94500 | 322 | 11300 | 43.6 | 35.8 | 36 | – | – | – | – | –
B2 | 23 | 398 | 77700 | 150 | 84800 | 17.5 | 27.7 | 77 | 4.48 | 2.78 | 1.51 | 63 | 9730
